The assay concerns the target human Eya2 Eya Domain (ED) (Homo sapiens, UniProt O00167). Nature of the assay: Inhibition of the phosphatase activity of Eya2 Eya Domain (ED) by known phosphatase inhibitors. The following applies: read-out: IC50 for inhibition of Eya2 ED phosphatase activity, FIG. 20. The assay is classed as biochemical.

The chains behind the UniProt entries cited, without tags or fusion partners. Where a name states a change or a piece, a line headed by the entry shows the natural chain unless it says otherwise.
UniProt O00167: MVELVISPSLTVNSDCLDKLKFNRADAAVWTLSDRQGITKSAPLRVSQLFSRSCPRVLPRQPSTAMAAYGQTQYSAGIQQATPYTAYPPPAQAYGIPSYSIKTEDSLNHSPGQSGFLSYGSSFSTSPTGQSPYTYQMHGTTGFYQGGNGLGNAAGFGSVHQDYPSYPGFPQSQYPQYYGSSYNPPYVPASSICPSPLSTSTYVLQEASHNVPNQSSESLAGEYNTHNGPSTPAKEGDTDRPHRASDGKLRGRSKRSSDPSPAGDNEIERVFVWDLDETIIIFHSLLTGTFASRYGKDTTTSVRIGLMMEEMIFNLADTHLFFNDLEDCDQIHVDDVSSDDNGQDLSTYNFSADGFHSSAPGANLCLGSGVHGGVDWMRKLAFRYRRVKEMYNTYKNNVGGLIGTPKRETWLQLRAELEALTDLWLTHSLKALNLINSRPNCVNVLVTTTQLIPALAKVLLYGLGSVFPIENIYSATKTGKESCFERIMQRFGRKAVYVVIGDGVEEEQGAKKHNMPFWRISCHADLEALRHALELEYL

As to NaF, the half-inhibitory concentration (IC50) was 6.6 mM.

As usually defined, the IC50 is the concentration that inhibits the measured activity by half.

Values taken from patent publication US20110038791A1, “METHODS FOR INHIBITING SIX1 AND EYA PROTEINS” (priority 2008, published 2011).
